# Experiments:
# Sequences of proteins named here, by UniProt entry; tags and fusion partners are left off. Residues count along the entry.
# UniProt P10415, whole entry, species assumed: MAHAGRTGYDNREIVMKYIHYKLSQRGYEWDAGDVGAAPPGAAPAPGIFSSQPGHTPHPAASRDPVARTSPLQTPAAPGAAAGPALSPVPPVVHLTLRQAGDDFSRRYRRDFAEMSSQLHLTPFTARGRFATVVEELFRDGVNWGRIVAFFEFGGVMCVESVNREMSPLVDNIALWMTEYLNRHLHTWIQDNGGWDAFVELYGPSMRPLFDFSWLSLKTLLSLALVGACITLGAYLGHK
# UniProt Q07820, 172-327: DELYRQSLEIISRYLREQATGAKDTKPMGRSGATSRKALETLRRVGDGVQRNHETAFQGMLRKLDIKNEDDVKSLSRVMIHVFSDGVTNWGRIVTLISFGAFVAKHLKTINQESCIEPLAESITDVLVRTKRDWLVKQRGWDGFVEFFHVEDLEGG
# UniProt Q07817, whole entry, species assumed: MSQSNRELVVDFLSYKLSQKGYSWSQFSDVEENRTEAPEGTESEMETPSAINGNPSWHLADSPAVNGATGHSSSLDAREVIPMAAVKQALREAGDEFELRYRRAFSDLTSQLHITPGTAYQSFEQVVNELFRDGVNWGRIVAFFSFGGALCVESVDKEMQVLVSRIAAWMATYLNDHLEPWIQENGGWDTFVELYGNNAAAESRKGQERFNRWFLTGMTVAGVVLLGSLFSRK
# Bcl-2 = Bcl-2 (Homo sapiens, UniProt P10415); details: ratio of Ki values
# human Mcl-1 = human Mcl-1 (Homo sapiens, UniProt Q07820); assay: FPA competition assay, displacement of FITC-Bak-BH3 peptide from Mcl-1; details: binding to Mcl-1
# Bcl-xL = Bcl-xL (Homo sapiens, UniProt Q07817); details: ratio of Ki values
SMILES,binding selectivity for Mcl-1 over Bcl-2 (Bcl-2) [fold],LE (ligand efficiency) (human Mcl-1),binding selectivity for Mcl-1 over Bcl-xL (Bcl-xL) [fold]
"Cc1cc(OCCCc2c(C(=O)O)n3c4c(c(Cl)ccc24)CCC3)cc(C)c1Cl [Compound 34, 7-chloro-1-(3-(4-chloro-3,5-dimethylphenoxy)propyl)-5,6-dihydro-4H-pyrrolo[3,2,1-ij]quinoline-2-carboxylic acid]",> 100,0.40,> 1700
"Cc1cc(OCCCc2c(C(=O)O)n3c4c(c(Cl)ccc24)OCC3)cc(C)c1Cl [Compound 35, 9-Chloro-6-(3-(4-chloro-3,5-dimethylphenoxy)propyl)-2,3-dihydro-[1,4]oxazino[2,3,4-hi]indole-5-carboxylic acid]",> 100,–,> 1700
